This is an account of results in PubChem BioAssay AID1779 (Sanford-Burnham Center for Chemical Genomics, 2009).

Amino acid sequences for entries named in this document (tags omitted).
UniProt Q9Y2R2, whole entry, looked up: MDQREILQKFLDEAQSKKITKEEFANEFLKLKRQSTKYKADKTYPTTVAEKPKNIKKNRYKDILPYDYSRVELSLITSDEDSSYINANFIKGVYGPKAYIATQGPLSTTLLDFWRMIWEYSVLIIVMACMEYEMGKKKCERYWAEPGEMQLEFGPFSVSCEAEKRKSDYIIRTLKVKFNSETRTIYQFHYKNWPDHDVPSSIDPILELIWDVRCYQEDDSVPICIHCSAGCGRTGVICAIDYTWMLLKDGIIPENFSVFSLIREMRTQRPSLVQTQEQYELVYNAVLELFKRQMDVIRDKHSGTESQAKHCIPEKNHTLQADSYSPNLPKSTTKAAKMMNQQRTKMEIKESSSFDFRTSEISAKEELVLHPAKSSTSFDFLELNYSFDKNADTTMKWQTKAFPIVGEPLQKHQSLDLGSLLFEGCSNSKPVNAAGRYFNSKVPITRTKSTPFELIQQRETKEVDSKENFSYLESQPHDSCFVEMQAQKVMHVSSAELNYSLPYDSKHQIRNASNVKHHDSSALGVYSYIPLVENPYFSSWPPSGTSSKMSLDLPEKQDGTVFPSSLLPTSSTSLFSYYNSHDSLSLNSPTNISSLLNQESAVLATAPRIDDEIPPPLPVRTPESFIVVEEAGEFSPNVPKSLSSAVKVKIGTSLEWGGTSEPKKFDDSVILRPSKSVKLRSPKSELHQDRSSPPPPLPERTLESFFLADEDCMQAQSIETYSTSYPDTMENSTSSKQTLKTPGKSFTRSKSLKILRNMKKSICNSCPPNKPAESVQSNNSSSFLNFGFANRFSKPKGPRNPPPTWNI

Only a part is listed here, and it is no random draw. The source made the active and inactive calls. No stated cut-off is given here; in the data, active means inhibition above about 50%; inactive means the rest.

For this experiment, the target named is Tyrosine-protein phosphatase non-receptor type 22 (Homo sapiens) (UniProt Q9Y2R2). Put plainly: PTPN22 lymphoid phosphatase activity blockers – biochemical, fluorescence intensity, uHTS (AID 1779).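 Further: plate controls were vehicle with enzyme for no effect and no enzyme for full effect.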 The following applies: recombinant LYP phosphatase, at 11.5 µM, active compounds read high.
What is called inhibition is the change of the read-out against control, counted positive when it falls. On to `O=[As](O)(c1cccs1)c1cccs1`, for which the inhibition is inactive: -4.3%. With `O=P1(Nc2ccc(Br)cn2)COc2ccccc2OC1`, the inhibition was inactive: -4.7%. As to `Nc1cccc([As](=O)(O)c2ccccc2)c1`, the inhibition is inactive: -10.6%. With `O=P1(Nc2ncccn2)COc2ccccc2OC1`, the inhibition is inactive: -1%. For `O=C(/C=C/c1ccccc1)OC1CN2CCC1CC2` (configuration not stated) the value was inactive: -4.9%; for `CN(C)C1(CNC(=O)c2ccc(S(C)(=O)=O)cc2)CCCCC1`, inactive: -2%. The same measure for `Cc1ccc(C(=O)OC2CN3CCC2CC3)cc1` (configuration not stated): inactive: -1.7%; for `CC1CCC(C(C)C)C(OP(=O)(Nc2ccccn2)c2ccccc2)C1` (configuration not stated): inactive: -0.7%. Turning to `Cc1nn(-c2ccccc2)c2c1P(=O)(N1CCOCC1)N(C)C(c1ccccc1)=N2` (configuration not stated), the inhibition is inactive: -4.6%. As for `O=[N+]([O-])c1ccc(Nc2ccc(Oc3ccc([N+](=O)[O-])cc3[N+](=O)[O-])cc2)c([N+](=O)[O-])c1`, the inhibition was inactive: 0.7%. Regarding `Cc1cc(SC(NC=O)C(Cl)(Cl)Cl)ncn1` (configuration not stated), the inhibition is inactive: -7%. The same measure for `O=P(Nc1ccccn1)(c1cccc2ccccc12)c1cccc2ccccc12`: inactive: 2.4%.

As to `CCOC(=O)Nc1cccc([As](=O)(O)O)c1`, the inhibition is inactive: -7.6%. Regarding `Cc1cc(SC(NC(=O)c2ccccc2)C(Cl)(Cl)Cl)nc(C(C)C)n1` (configuration not stated), the inhibition is inactive: -11.1%. Take `CCCCOc1ccc(C(=O)NCC2(N3CCCCC3)CCCCC2)cc1OC`: the inhibition was inactive: -14.6%. On to `CCOC(=O)Nc1ccc([As](=O)(O)O)c(O)c1`, for which the inhibition is inactive: -7.7%. The same measure for `CCC(C)N(CC(C)C)C(=S)SC(NC(C)=O)C(Cl)(Cl)Cl` (configuration not stated): inactive: -7.2%; for `CCOC(=O)c1ccc(NC(=O)C(C)(CCl)SC)cc1` (configuration not stated): inactive: -5.2%. For the compound `O=C(OC1CN2CCC1CC2)c1cccc([N+](=O)[O-])c1` (configuration not stated), the inhibition is inactive: -6.7%. For `O=C(Nc1ccncc1[N+](=O)[O-])c1ccc([N+](=O)[O-])cc1[N+](=O)[O-]` the value was inactive: -6.1%; for `O=C(COc1ccccc1)OC1CN2CCC1CC2` (configuration not stated), inactive: 1%. `COP1(=S)c2c(C)nn(CCC#N)c2N=C(c2ccc(F)cc2)N1C` (configuration not stated): the inhibition was inactive: -8%. `COc1ccc(N/C(=N/P(=O)(N2CCOCC2)N2CCOCC2)N2CCOCC2)cc1`: the inhibition is inactive: -5.3%. With `COc1cc(I)ccc1[As](=O)(O)O`, the inhibition was inactive: -5%. Take `COc1ccc2nc(NP(=O)(c3ccccc3)c3ccccc3)sc2c1`: the inhibition is inactive: 1.7%. In the case of `Cc1cc(=O)[nH]c(N[N+](=O)[O-])n1`, the inhibition was inactive: 0.9%. In the case of `O=C(OC1CN2CCC1CC2)C12CC3CC(CC(C3)C1)C2` (configuration not stated), the inhibition is inactive: -6.5%.

As for `Cc1c2c(nc3ccccc13)SC(C(Cl)Cl)C2` (configuration not stated), the inhibition is inactive: 0%. With `O=[N+]([O-])c1cc([N+](=O)[O-])c(-c2ccn[nH]2)s1`, the inhibition is inactive: 0.1%.

Take `CC(C)NC(=O)NP(=O)(Oc1ccccc1)Oc1ccccc1`: the inhibition was inactive: -1.8%. With `CCN(CC)C(=S)SC(NC=O)C(Cl)(Cl)Cl` (configuration not stated), the inhibition is inactive: -1.9%. Consider `CC(C)c1ccc(OP(=O)(Nc2ccccn2)Oc2ccccc2F)cc1` (configuration not stated), for which the inhibition is inactive: -1.6%. In the case of `ClCCSc1nnc(-c2cccnc2)o1`, the inhibition is inactive: -6.6%.

Take `Cc1ccc2nc3c(c(C)c2c1)CC(C(Cl)Cl)S3` (configuration not stated): the inhibition is inactive: 0%.

As to `Cc1ccc(OP(=O)(Nc2ccc([N+](=O)[O-])cn2)Oc2ccc(C)cc2)cc1`, the inhibition is inactive: -2.3%. Regarding `O=[As](O)(c1ccc(O)cc1)c1ccccc1O`, the inhibition was inactive: -13.1%. Regarding `C[As](=O)(O)c1cccc(C(=O)O)c1`, the inhibition is inactive: -6.8%.
